Earlier results in US20240226060A1, “TOPICAL LIPOSOME POLYPHENOL COMPOSITIONS FOR TREATING AND PREVENTING VARIOUS SKIN DISORDERS AND METHODS OF PREPARATION THEREOF” (PANAG PHARMA INC., priority 2021, published 2024).
“And” between values parts separate entries of the source, which are not always exact repeats. Equal values may be shown once. Read-outs that look alike come from different tables or passages of the source.

How the values were obtained:
[1] = Mobbili et al
[2] = equal portions

For epigallocatechin 3-gallate [EGCG], the “encapsulation efficiency, maximum” value ([1]; anionic vesicles in presence of Mg2+) is given as 100% and 98.9%, the “encapsulation efficiency, maximum” value ([1]; neutral vesicles in presence of Mg2+) is given as 82.3% and 82.2% and the solubility ([2]; ethanol/citrate buffer (100 mM, pH 5.0)) is given as 62.8%. The solubility ([2]; propylene glycol/citrate buffer (100 mM, pH 5.0)) was 44.9%.
